Test results as given in ChEMBL document CHEMBL4602604, “A Selective and Brain Penetrant p38αMAPK Inhibitor Candidate for Neurologic and Neuropsychiatric Disorders That Attenuates Neuroinflammation and Cognitive Dysfunction” (J Med Chem, 2019).

Tests used:
Hepatocyte [1] = test: Induction of CYP1A2 mRNA expression in rat primary hepatocytes at 0.5 to 50 uM incubated for 48 hrs by RT-PCR analysis; type: ADME, cell-based
Hepatocyte [2] = test: Induction of CYP2B1 mRNA expression in rat primary hepatocytes at 0.5 to 50 uM incubated for 48 hrs by RT-PCR analysis; type: ADME, cell-based
[3] = Induction of CYP1A2 mRNA expression in dog primary hepatocytes at 0.5 to 50 uM incubated for 48 hrs by RT-PCR analysis; type: ADME, cell-based, Canis lupus familiaris, Hepatocyte
Hepatocyte [4] = test: Induction of CYP2B6 mRNA expression in human primary hepatocytes at 0.5 to 50 uM incubated for 48 hrs by RT-PCR analysis; type: ADME, cell-based
Hepatocyte [5] = test: Induction of CYP3A4 mRNA expression in human primary hepatocytes at 0.5 to 50 uM incubated for 48 hrs by RT-PCR analysis; type: ADME, cell-based

Measured: Activity

CN1CCN(c2cc(-c3ccncc3)c(-c3ccc4ccccc4c3)nn2)CC1 [MW-150]
Non-Toxic: Hepatocyte [1] | Hepatocyte [2] | [3] | Hepatocyte [4] | Hepatocyte [5]
